Laboratory results reported in patent publication US20020081661A1 (Synaptic Pharmaceutical Corporation, priority 1992, published 2002).

Sequences of proteins named here, by UniProt entry; tags and fusion partners are left off. Residues count along the entry.
UniProt Q62758, 1-387 isoform Q62758-2: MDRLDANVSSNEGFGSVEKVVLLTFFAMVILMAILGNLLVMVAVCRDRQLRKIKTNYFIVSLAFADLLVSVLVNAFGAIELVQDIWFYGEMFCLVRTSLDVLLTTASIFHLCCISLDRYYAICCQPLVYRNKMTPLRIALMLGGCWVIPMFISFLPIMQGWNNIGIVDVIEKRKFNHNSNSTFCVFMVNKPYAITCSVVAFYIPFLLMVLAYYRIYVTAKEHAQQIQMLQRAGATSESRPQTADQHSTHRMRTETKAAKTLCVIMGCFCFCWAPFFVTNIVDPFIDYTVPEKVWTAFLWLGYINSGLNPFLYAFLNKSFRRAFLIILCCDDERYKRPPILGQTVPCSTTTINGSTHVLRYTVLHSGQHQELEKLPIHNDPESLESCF

Key:
[1] = target: T1, rat 5-HT4 receptor S10-87 (CG-7) (Rattus norvegicus, UniProt Q62758); test: [3H]5-HT radioligand binding (saturation and displacement), membranes of Cos-7 cells transiently expressing rat S10-87 (CG-7)
[2] = target: T2, rat 5-HT4 (CG-7) receptor (Rattus norvegicus, UniProt Q62758); test: cAMP formation in intact Cos-7 cells transiently expressing CG-7; assay type: cell-based; conditions: CG-7, stimulation of basal cAMP release; means ± S.E.M. of three experiments
T2 construct: two individual full length cDNA clones, S10-87 and S10-95, were isolated; expressed in transfected cells; host or cells: COS-7 (transient, DEAE-dextran)
Protocol: (§1) Measurement of cAMP Formation: The transiently transfected Cos-7 cells were incubated in Dulbecco's modified Eagle's medium, 5 mM theophylline, 10 mM Hepes (4-[2-Hydroxyethyl]-1-piperazineethanesulfonic acid), 10 μM pargyline, and/or appropriate concentrations of antagonists for 20 minutes at 37° C., 5% CO2. […] The media was aspirated and the reaction stopped by the addition of 100 mM HCl. The plates were stored at 4° C. for 15 minutes, centrifuged for 5 minutes, 500×g to pellet cellular debris, and the supernatant aliquotted and stored at −20° C. prior to assessment of cAMP formation by radioimmunoassay (cAMP Radioimmunoassay kit, Advanced Magnetics, Cambridge, Mass.). Radioactivity was quantitated using a Packard COBRA Auto Gamma Counter equipped with data reduction software. Functional data was fitted to a four parameter logistic equation to obtain response parameters (EC50, Emax, nH; Inplot, GraphPad, San Diego, Calif.).

[3] = target: T3, rat 5-HT4 (CG-8) receptor (Rattus norvegicus, UniProt Q62758); test: cAMP formation in intact Cos-7 cells transiently expressing CG-8; assay type: cell-based; conditions: CG-8, stimulation of basal cAMP release; means ± S.E.M. of three experiments
T3 construct: two individual full length cDNA clones, S10-87 and S10-95, were isolated; expressed in transfected cells; host or cells: COS-7 (transient, DEAE-dextran)
Protocol: as §1

[4] = target: T4, rat 5-HT4 receptor S10-95 (CG-8) (Rattus norvegicus, UniProt Q62758); test: biochemical
[5] = target: T1, rat 5-HT4 receptor S10-87 (CG-7); test: [3H]GR113808 binding (saturation and displacement), COS-7 membranes, rat clone CG-7; set-up: two individual full length cDNA clones, S10-87 and S10-95, were isolated; expressed in transfected cells; host or cells: COS-7 (transient, DEAE-dextran)
[6] = target: T4, rat 5-HT4 receptor S10-95 (CG-8); test: [3H]GR113808 binding (saturation and displacement), COS-7 membranes, rat clone CG-8; set-up: two individual full length cDNA clones, S10-87 and S10-95, were isolated; expressed in transfected cells; host or cells: COS-7 (transient, DEAE-dextran)

SMILES | Kd [1] [nM] | EC50 [2] [nM] | EC50 [3] [nM] | Ki [4] [nM] | Ki [1] [nM] | Ki ([1]; K1 (nM), CG-7, binding data using [3H]5-HT, Table 4) [nM] | Ki ([5]; CG-7, 0.2-0.4 nM [3H]GR113808, single experiment, read-out: Affinity estimate K1) [nM] | Ki ([5]; CG-7, [3H]GR113808, read-out: KH (affinity for the high affinity state)) [nM] | Ki ([5]; CG-7, [3H]GR113808, read-out: KL (affinity for the low affinity state)) [nM] | Ki ([6]; Affinity estimate K1, CG-8, 0.2-0.4 nM [3H]GR113808, single experiment) [nM] | Ki ([6]; KH (affinity for the high affinity state), CG-8, [3H]GR113808) [nM] | Ki ([6]; read-out: KL (affinity for the low affinity state), CG-8, [3H]GR113808) [nM]
NCCc1c[nH]c2ccc(O)cc12 [[^3H]5-HT] | 7.87 ± 0.06 | – | – | – | – | – | – | – | – | – | – | –
NCCc1c[nH]c2ccc(O)cc12 [5-HT, serotonin] | – | 26 ± 3 | 51 ± 7 | 6.4 ± 0.5 | 8.6 ± 0.6 | 8.6 ± 0.6 | 237 | 2.6 | 357 | 116 | 2.5 | 197
